This test has as its target T1, N-terminal biotinylated Aβ40 (UniProt P05067 672-711, biotin on the N-terminus).
T1 construct: amyloid-β of 40 amino acids (Aβ40), cleavage product of amyloid precursor protein; HFIP- and NaOH-treated before use; also called biotin-Aβ40; biotin-labeled Aβ40; source: bought: Biopeptide Inc
The experiment in a line: BLI; Octet RED96; N-terminally biotinylated Aβ40 immobilised on streptavidin sensors; TDP-43 variants in solution; 10 mM Tris pH 7.8, 0.005% Tween-20; 37 °C; association and dissociation 300 s each; double references. The note with it: both partners purified. A general note: In BLI a coated tip is dipped into the sample, and binding shifts an interference pattern.

B1: TDP-43 RNA recognition region (aa 101-265) (domain or fragment, UniProt Q13148 101-265, looked up)
chain: QKTSDLIVLGLPWKTTEQDLKEYFSTFGEVLMVQVKKDLKTGHSKGFGFVRFTEYETQVKVMSQRHMIDGRWCDCKLPNSKQSQDEPLRSRKVFVGRCTEDMTEDELREFFSQYGDVMDVFIPKPFRAFAFVTFADDQIAQSLCGEDLIIKGISVHISNAEPKHN
notes: calculated 20.4 kDa; also called TDP-43_RRM1 + 2; TDP-43_RRM1 + RRM2; source: E. coli M15 (pQE30), purified (Ni-NTA)
For orientation: Kd means a measure of binding affinity in units of concentration. As a reminder, the koff is a measure of how fast the partners let go of each other. A lower koff goes with a long-lived complex. For orientation: kon means a measure of how fast the partners come together. A lower kon goes with slow association. As for B1, the Kd was less than 1 pM, the koff is less than 1e-07 s⁻¹ and the kon was determined as 9000 M⁻¹ s⁻¹.
